Measured values from ChEMBL document CHEMBL3286257, “Development of second generation EP2 antagonists with high selectivity” (Eur J Med Chem, 2014).

By UniProt entry, the sequences of proteins in these tests, tags left out.
UniProt P28223, whole entry: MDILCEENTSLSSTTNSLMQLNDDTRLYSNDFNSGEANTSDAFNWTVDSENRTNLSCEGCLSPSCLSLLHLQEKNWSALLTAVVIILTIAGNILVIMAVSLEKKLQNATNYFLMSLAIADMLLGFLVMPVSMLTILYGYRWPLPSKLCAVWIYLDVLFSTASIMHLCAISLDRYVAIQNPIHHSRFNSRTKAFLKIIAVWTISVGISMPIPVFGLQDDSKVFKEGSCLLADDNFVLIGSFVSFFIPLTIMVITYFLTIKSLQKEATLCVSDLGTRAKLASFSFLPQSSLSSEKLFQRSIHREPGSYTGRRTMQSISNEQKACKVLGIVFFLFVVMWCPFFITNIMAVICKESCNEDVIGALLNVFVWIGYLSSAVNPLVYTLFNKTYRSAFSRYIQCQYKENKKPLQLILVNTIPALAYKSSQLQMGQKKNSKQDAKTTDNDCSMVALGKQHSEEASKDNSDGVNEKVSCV

Target: 5-hydroxytryptamine receptor 2A (Homo sapiens, UniProt P28223)

## COc1cc(/C=C/C(=O)NCCn2c(C(F)(F)F)cc3ccccc32)cc(OC)c1OC
  IC50: 75 µM
